Source: PMC11726677, “Eradication of Therapy-Resistant Cancer Stem Cells by Novel Telmisartan Derivatives” (Journal of Medicinal Chemistry, 2024)

What was measured:
A549 cells (ABCC1+) = experiment: SP analysis (DCV, flow cytometry) in A549 cells; assay type: cell-based, human
[1] = Body weight / tolerability in the K562-R xenograft study; settings: PO QD x 30 days (imatinib 50 mg/kg, 7c 10 mg/kg), n = 7
Caco2 cells = experiment: Caco2 permeability (bidirectional); assay type: in vitro ADME; settings: apical to basolateral, pH 7.4, 10 μM

SMILES	effect on SP phenotype (A549 cells (ABCC1+))	Body Weight, group mean ([1]; Day 5) [g]	Body Weight, group mean ([1]; Day 12) [g]	Body Weight, group mean ([1]; Day 19) [g]	Body Weight, group mean ([1]; Day 26) [g]	Body Weight, group mean ([1]; Day 29) [g]	Caco2 permeability Papp A–B (Caco2 cells)
CCCc1nc2ccccc2n1Cc1ccc(-c2cccc(C(N)=O)c2)cc1 [5c, 4′-((2-Propyl-1H-benzo[d]imidazole-1-yl)methyl)-[1,1′-biphenyl]-3-carboxamide]	nearly inactive	–	–	–	–	–	–
CCCc1nc2c(C)cc(-c3nc4ccccc4n3C)cc2n1Cc1ccc(-c2ccccc2C(N)=O)cc1 [7c, 4′-((1,7′-Dimethyl-2′-propyl-1H,3′H-[2,5′-bibenzo[d]imidazole]-3′-yl)methyl)-[1,1′-biphenyl]-2-carboxamide]	–	23.9	23.7	24.3	24.3	24.3	24.3 10^–6 cms^–1
